The text below walks through data of article PMC8711093 (Nature, 2021).

Chains of the proteins cited; added tags and fusions are not shown.
UniProt P30542, whole entry G279A: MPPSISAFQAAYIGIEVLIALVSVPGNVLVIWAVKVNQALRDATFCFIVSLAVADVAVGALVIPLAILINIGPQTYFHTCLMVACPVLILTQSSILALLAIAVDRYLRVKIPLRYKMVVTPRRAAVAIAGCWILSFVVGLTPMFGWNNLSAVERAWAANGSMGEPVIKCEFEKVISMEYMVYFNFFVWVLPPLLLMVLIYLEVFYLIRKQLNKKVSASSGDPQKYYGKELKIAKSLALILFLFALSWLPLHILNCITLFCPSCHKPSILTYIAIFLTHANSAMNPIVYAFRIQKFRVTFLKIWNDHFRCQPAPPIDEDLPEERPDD
UniProt P30542, whole entry N280A: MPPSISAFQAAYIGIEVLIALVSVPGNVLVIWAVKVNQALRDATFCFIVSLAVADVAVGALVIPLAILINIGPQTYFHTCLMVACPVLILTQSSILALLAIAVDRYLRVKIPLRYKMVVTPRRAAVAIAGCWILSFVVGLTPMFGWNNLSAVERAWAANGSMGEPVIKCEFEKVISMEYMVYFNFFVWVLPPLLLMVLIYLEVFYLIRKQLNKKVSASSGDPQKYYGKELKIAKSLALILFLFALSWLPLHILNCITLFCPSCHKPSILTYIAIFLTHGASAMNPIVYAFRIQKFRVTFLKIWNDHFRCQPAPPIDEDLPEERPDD
UniProt P30542, whole entry S246A: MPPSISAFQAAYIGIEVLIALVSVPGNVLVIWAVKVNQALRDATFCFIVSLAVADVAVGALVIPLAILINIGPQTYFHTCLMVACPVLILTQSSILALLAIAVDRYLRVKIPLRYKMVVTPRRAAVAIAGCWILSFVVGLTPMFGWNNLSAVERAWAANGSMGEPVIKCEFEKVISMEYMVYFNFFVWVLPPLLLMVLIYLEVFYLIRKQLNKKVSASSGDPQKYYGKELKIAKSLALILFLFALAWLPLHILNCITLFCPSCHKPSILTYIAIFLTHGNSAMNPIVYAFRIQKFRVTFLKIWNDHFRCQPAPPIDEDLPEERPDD
UniProt P30542, whole entry L242A/L245A: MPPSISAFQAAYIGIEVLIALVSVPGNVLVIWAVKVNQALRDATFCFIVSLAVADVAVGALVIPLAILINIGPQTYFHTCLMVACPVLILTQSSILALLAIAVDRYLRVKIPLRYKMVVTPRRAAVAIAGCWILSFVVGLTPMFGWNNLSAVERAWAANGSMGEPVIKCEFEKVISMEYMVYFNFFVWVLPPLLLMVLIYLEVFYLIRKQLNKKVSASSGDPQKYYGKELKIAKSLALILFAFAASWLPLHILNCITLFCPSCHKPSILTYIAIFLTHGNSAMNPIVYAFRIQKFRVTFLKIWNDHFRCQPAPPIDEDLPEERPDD

Structures are written as SMILES.

What all share (type): binding
Assay [1] deals with mutant A1R (Homo sapiens, UniProt P30542, G279A). The note with it: G279^7.44A.
For assay [2], the target named is mutant A1R (Homo sapiens, UniProt P30542, N280A). The note with it: N280^7.45A.
The target in assay [3] is mutant A1R (Homo sapiens, UniProt P30542, S246A). The note with it: S246^6.47A.
Assay [4] deals with mutant A1R (Homo sapiens, UniProt P30542, L242A/L245A). The note with it: L242^6.43A/L245^6.46A.

`CCNC(=O)[C@H]1O[C@@H](n2cnc3c(N)ncnc32)[C@H](O)[C@@H]1O` [NECA, reference compound]: the “change in orthosteric agonist affinity vs wild type” value in assay [1] is reported as “reduced NECA affinity”; in assay [2] it was “significantly enhanced the affinity”; in assay [3], “significantly enhanced the affinity”; in assay [4], “significantly enhanced the affinity”.
